Data as given in article PMC8036510, “The Inhibitory Effects of Plant Derivate Polyphenols on the Main Protease of SARS Coronavirus 2 and Their Structure–Activity Relationship” (Molecules, 2021).
Values joined by “and” are separate entries in the source; they are usually repeats but may differ in a detail not shown here. Identical values can stand only once.

How the values were obtained:
[1] = biological target: T1, SARS-CoV-2 M^pro (Severe acute respiratory syndrome coronavirus 2, UniProt P0DTD1); experiment: biochemical
[2] = biological target: T1, SARS-CoV-2 M^pro
[3] = biological target: T1, SARS-CoV-2 M^pro; experiment: Effect of DMSO on SARS-CoV-2 M^pro activity; format: biochemical; settings: 37 °C, 30 min
[4] = biological target: T1, SARS-CoV-2 M^pro; experiment: Combinative inhibitory effects of tannic acid, puerarin, daidzein and myricetin on M^pro; format: biochemical

Row | SMILES | IC50 [1] [µM] | other results
1 | O=C1c2c(O)cc(O)cc2OC(c2cc(O)c(OC3OC(CO)C(O)C(O)C3O)c(O)c2)C1O (stereo not drawn) | 195 ± 5 | inhibition ([2]; pH 7.5): > 50% and 50%
2 | O=c1c(O[C@@H]2O[C@H](CO)[C@@H](O)[C@H](O)[C@H]2O)c(-c2ccc(O)cc2)oc2cc(O)cc(O)c12 [Astragalin] | 143 ± 9 | 
3 | O=C(O)/C=C/c1ccc(O)c(O)c1 [Caffeic acid] | 197 ± 1 | 
4 | C[S+](C)[O-] [DMSO, Dimethylsulfoxide] |  | M^pro activity in the presence of DMSO ([3]; 50% (v/v) DMSO): not detected; M^pro activity in the presence of DMSO ([3]; up to 10% (v/v) DMSO): stable
5 | O=C1C[C@@H](c2ccc(O)cc2)Oc2cc(O)cc(O)c21 [Naringenin] | 150 ± 10 | inhibitory activity, fold higher than that of naringin ([2]; 200 μM, relative to naringin): 3.2 fold
6 | O=c1c(-c2ccc(O)cc2)coc2c([C@@H]3O[C@H](CO)[C@@H](O)[C@H](O)[C@H]3O)c(O)ccc12 [Puerarin] | 42 ± 2 | inhibition at 45 µM ([4]; read-out: M^pro inhibitory activity of flavonoids): 50.8 ± 2%; inhibition at 20 µM ([4]; read-out: inhibitory effect of a single polyphenol on M^pro): 23 ± 5%
7 | O=c1c(O)c(-c2ccc(O)c(O)c2)oc2cc(O)c(O)c(O)c12 [Quercetagenin] | 145 ± 6 | 
8 | Oc1ccc(/C=C/c2cc(O)cc(O)c2)cc1 [Resveratrol] | 103 ± 6 | 
9 | O=c1cc(-c2ccc(O)cc2)oc2c([C@@H]3O[C@H](CO)[C@@H](O)[C@H](O)[C@H]3O)c(O)cc(O)c12 [Vitexin] | 180 ± 6 | inhibitory activity on M^pro, fold that of apigenin ([2]; 200 μM, relative to apigenin): 2 fold
